Results on eight compounds are retold here after patent publication US7897758B2, “Activators for oligonucleotide and phosphoramidite synthesis” (dated 2011).

The nature of data set [1]: Solubility of tetrazole derivatives in acetonitrile (saturated solution, NaOH titration). To be noted: 25° C.; for maximum concentration / solubility in acetonitrile: Example 1.
The conditions of data set [2]: 25° C., prior-art activators, source not given, cited from earlier work.
For data set [3] the following is noted: prior-art activators, source not given; cited from earlier work.
A short description of data set [4]: Miscibility of activator solutions with deblock- and capping-solutions (visual inspection for precipitates). To be noted: for observation, mixed with Deblock: activator solution in acetonitrile (0.45 M or 0.5 M as printed) + 3% trichloroacetic acid in dichloromethane; for observation, mixed with Deblock / observation, mixed with Cap A + Cap B / observation, mixed with Fast Cap A + Cap B: ratios 1/9, 1/1 and 9/1 v/v; for observation, mixed with Cap A + Cap B / observation, mixed with Fast Cap A + Cap B: activator solution in acetonitrile (0.45 M or 0.5 M as printed); for observation, mixed with Deblock, ratio 1/1: 1/1 v/v.

A short description of data set [5]: Hygroscopy: weight gain at 75% relative humidity. To be noted: 8 days.
A short description of data set [6]: Coupling reaction of DMT-rA(tac)si-amidite (23) with dT-si (24) in a NMR tube (31P-NMR conversion). To be noted: for time after which the coupling reaction was complete: amidite (23) to product (25), P-NMR.
Data set [7] can be described thus: Acidity (pKa) of 5-substituted 1H-tetrazoles by NaOH titration. To be noted: titration with 0.100 M NaOH in acetonitrile/water 1/1, glass electrode.
The mark [8] stands for this setting: time 90 sec., ambient temperature, deuterated acetonitrile.

Where two headings read alike, the source gives them in different places.

`FC(F)(F)c1cc(-c2nn[nH]n2)cc(C(F)(F)F)c1`: in data set [1], the Solubility was 0.94 mol/ltr and the “maximum concentration / solubility in acetonitrile” value (“maximum concentration / solubility” for short) was determined as 940 mM.

1H-tetrazole: in data set [2], the “maximum concentration / solubility” value is 450 mM. For the same compound, the pKa-value in data set [3] was 4.8. Moreover, in data set [4], the “observation, mixed with Deblock” value is reported as “clear solution”; the “observation, mixed with Cap A + Cap B” value is given as “clear solution”; the “observation, mixed with Fast Cap A + Cap B” value is recorded as “clear solution”.

As for `N#Cc1nc[nH]c1C#N`, the “observation, mixed with Deblock, ratio 1/1” value in data set [4] (0.5 M in acetonitrile + 3% trichloroacetic acid in dichloromethane) is listed as “immediate formation of precipitates”. For the same compound, the “observation, mixed with Deblock, ratio 1/1” value in data set [4] (0.5 M in acetonitrile + 3% trichloroacetic acid in dichloromethane, listed as 4,5-Dicyanoimidazole) was “solid particles”. The “observation, mixed with Deblock, ratio 1/9” value in data set [4] (0.5 M in acetonitrile + 3% trichloroacetic acid in dichloromethane, 1/9 v/v, listed as 4,5-Dicyanoimidazole) is listed as “precipitate”. The “observation, mixed with Deblock, ratio 9/1” value in data set [4] (0.5 M in acetonitrile + 3% trichloroacetic acid in dichloromethane, 9/1 v/v) was “ratio 9/1: clear”. In data set [4], the “observation, mixed with Cap A + Cap B” value is “clear solution” and the “observation, mixed with Fast Cap A + Cap B” value is recorded as “clear solution”.

For `FC(F)(F)c1cc(-c2nnn[nH]2)cc(C(F)(F)F)c1`, in data set [5] (50 g sample, 75% relative humidity), the “hygroscopy of the solid” value is “not hygroscopic”. Besides, the weight gained result in data set [5] (50.013 g dried sample, 75-76% relative humidity, ambient temperature) is listed as “less than 3 mg”. Besides, the “time after which the coupling reaction was complete” value in data set [6] was found to be 5 min. Also, the Conversion in data set [6] (setting [8]) is given as 73%; in data set [6] (time 180 sec.), 79%; in data set [6] (time 240 sec. (4 minutes)), 94%; in data set [6] (time 300 sec.), 100%. The “precipitation on mixing with deblock or capping solutions in any ratio” value in data set [4] (0.5 M solution in acetonitrile) is “without concomitant precipitation of solid materials”. The “observation, mixed with Deblock” value in data set [4] is reported as “clear solution”. Further, the “observation, mixed with Cap A + Cap B” value in data set [4] is “clear solution”. Also, the “observation, mixed with Fast Cap A + Cap B” value in data set [4] is on record as “clear solution”.

In data set [7], `CCSc1nnn[nH]1` gave an Acidity pKa of 4.2. This compound also displayed a Solubility in data set [1] of 1.52 mol/ltr. Further, the “maximum concentration / solubility” value in data set [1] turned out to be 1520 mM. Also, in data set [6], the “time after which the coupling reaction was complete” value is 17 min. Further, the Conversion in data set [6] (setting [8]) was found to be 64%; in data set [6] (time 150 sec. (2.5 minutes)), 75%; in data set [6] (time 180 sec.), 78%; in data set [6] (time 300 sec.) it was 87%; in data set [6] (time 480 sec.), 91%; in data set [6] (time 600 sec.) it was 96%. Moreover, the Conversion turned out to be 96% in data set [6] (time 720 sec.), 97% in data set [6] (time 840 sec.) and 100% in data set [6] (time 1020 sec.).

Regarding `O=[N+]([O-])c1ccc(-c2nnn[nH]2)cc1`, the “maximum concentration / solubility” value in data set [2] (listed as 5-(4-nitrophenyl)-1H-tetrazole (7)) was “low solubility”; in data set [2], 120 mM. In addition, the pKa-value in data set [3] is 3.7.

For `c1ccc(CSc2nnn[nH]2)cc1`, the Acidity pKa in data set [7] was 4.2. Further, in data set [1], the Solubility was 0.44 mol/ltr and the “maximum concentration / solubility” value is 440 mM.

`c1ccc(-c2nnn[nH]2)cc1` showed an Acidity pKa in data set [7] of 4.8. In addition, in data set [1], the Solubility is 0.08 mol/ltr and the “maximum concentration / solubility” value was found to be 80 mM.
